The target of this experiment is T1, MAO-B (Homo sapiens, UniProt P27338).
T1 construct: purchased Sigma-Aldrich (St. Louis, MO, USA)
It counts as biochemical. Conditions: MAO-B versus MAO-A. As to the method: The IC50 values were determined by measuring the residual activity at different concentrations of the compounds and by using GraphPad Prism software 5.0. […] BACE1 inhibitory activities were tested by the BACE1 activity detection kit. The assay method was described previously. Recombinant human MAO-A and MAO-B, AChE from Electrophorus electricus, BChE from equine serum, BACE1, and their substrates and reference inhibitors were purchased from Sigma-Aldrich (St. Louis, MO, USA). […]

Sequences of proteins named here, by UniProt entry; tags and fusion partners are left off.
UniProt P27338, whole entry: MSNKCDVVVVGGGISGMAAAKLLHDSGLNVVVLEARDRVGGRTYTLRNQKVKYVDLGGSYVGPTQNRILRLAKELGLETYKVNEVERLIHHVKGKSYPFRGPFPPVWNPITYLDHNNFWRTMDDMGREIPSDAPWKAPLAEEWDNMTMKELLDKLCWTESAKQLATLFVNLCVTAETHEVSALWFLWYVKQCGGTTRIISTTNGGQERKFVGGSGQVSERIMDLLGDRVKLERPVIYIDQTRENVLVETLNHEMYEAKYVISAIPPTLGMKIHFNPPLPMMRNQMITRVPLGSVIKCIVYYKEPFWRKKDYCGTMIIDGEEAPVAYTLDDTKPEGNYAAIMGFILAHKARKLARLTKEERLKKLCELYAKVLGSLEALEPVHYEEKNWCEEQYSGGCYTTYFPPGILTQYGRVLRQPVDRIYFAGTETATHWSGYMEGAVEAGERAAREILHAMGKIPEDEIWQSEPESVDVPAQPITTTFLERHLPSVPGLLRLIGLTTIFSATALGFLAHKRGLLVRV

The record followed here is article PMC9230784, “Development of a Novel Class of Pyridazinone Derivatives as Selective MAO-B Inhibitors” (Molecules, 2022).

Turning to `O=C(Cn1nc(N2CCOCC2)ccc1=O)NN=Cc1ccc(F)cc1` [TR15], the “SI (selectivity index for MAO-B compared with MAO-A)” value is reported as greater than 93.02.
